This is an account of results in article PMC11093611 (The Journal of Clinical Investigation, 2024).

For the assay, the target named is recombinant TFRC (UniProt P02786 1-760). The assay can be described thus: SPR; rCf48 and recombinant TFRC; which one was immobilised is not stated. As to conditions: both partners purified.

B1: recombinant mouse Cf48 (rCf48) lacking the signal peptide (secreted form) (peptide, UniProt Q3UR78 29-90, looked up)
chain: EPATGSAVPAQSRPCVDCHAFEFMQRALQDLRKTAYSLDARTETLLLQAERRALCACWPAGR
notes: Mouse Cf48 (Gm1673; C4orf48 in humans), secreted form lacking the signal peptide; also called recombinant Cf48 peptide; source: recombinant
Regarding B1, the Kd amounted to 571 nM.
